Experimental data from ChEMBL document CHEMBL2424616, “Synthesis and antimicrobial activity of novel 5-(1-adamantyl)-2-aminomethyl-4-substituted-1,2,4-triazoline-3-thiones” (2013).

Test system: Escherichia coli
Conditions: IFO 3301

## GENTAMICIN
  MIC: 0.5 µg/mL
